{"sequences": {"note": "Protein sequences, listed by entry. Tags and fused reporters are not part of them.", "UniProt P33261, whole entry": "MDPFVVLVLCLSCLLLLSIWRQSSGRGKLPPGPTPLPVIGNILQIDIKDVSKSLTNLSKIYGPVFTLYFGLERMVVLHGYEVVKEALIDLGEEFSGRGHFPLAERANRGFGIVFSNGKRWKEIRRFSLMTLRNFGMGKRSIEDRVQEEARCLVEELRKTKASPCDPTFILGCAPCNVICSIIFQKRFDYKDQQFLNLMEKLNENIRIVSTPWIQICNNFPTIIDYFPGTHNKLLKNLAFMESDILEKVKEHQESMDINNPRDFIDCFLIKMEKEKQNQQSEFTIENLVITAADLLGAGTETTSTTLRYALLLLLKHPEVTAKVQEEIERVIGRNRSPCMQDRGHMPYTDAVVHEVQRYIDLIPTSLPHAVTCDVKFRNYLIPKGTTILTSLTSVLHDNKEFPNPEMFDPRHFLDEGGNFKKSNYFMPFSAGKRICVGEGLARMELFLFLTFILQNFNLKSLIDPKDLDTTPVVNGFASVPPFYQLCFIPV"}, "source": "patent US7307101B2", "about": "“Use of 20-HETE synthesizing enzyme inhibitors as therapy for cerebral vascular disease” (MCW Research Foundation, Inc., priority 2000, dated 2007)", "biological_target": "CYP2C19 (Homo sapiens, UniProt P33261)", "assay": "CYP2C19 activity in human liver microsomes", "conditions": "positive control, concentration not given", "data": [{"smiles": "N[C@@H]1C[C@H]1c1ccccc1", "note": "(racemic) [Tranylcypromine]", "values": [{"measurement": "% Inhibition (duplicate) CYP2C19", "result": 64, "unit": "%"}]}]}
